ChEMBL document CHEMBL1135946, “Design, synthesis and biological activity of novel non-amidine factor Xa inhibitors. Part 1: P(1) structure-activity relationships of the substituted 1-(2-Naphthyl)-1H-pyrazole-5-carboxylamides” (Bioorg Med Chem Lett, 2002)

By UniProt entry, the sequences of proteins in these tests, tags left out. Residues count along the entry.
UniProt P00742, 41-179 limits assumed: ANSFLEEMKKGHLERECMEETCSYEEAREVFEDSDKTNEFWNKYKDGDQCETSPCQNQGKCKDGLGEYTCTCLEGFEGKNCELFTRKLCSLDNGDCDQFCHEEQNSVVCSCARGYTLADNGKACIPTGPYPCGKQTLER
UniProt P00742, 235-488 limits assumed: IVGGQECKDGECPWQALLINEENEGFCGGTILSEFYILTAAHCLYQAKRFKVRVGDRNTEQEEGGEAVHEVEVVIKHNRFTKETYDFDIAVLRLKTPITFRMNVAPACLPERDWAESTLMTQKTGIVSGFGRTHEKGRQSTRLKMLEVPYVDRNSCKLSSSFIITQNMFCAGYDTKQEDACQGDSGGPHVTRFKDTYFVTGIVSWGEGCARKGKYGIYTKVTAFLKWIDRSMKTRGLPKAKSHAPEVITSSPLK

Target: Coagulation factor X (Homo sapiens, UniProt P00742)
Test: Inhibitory activity against coagulation factor Xa

COc1ccc2cc(-n3nc(C)cc3C(=O)Nc3ccc(-c4ccccc4S(N)(=O)=O)cc3)ccc2c1
IC50: 3.3 µM
